The values below are quoted from earlier work in patent US4968696A, “N,N'-bis-L-amino acid-L-cystine-peptide containing amino acid preparations for oral parenteral nutrition” (Pfrimmer + Co. Pharmazeutische Werke Erlangen GmbH + co. KG, priority 1986, dated 1990).

The conditions of the series: cited from earlier work.

On to “N^2 -L-cystinyl-N^6 -L-cystinyl-L-lysine”, for which the “solubility in water (prior art statement)” value is recorded as “readily soluble in water”.
